Measurements taken from publication PMC12723675, “Evaluating BindCraft for Generative Design of High-Affinity Peptides” (ACS Chemical Biology, 2025).

Target: WDR5 (Myc binding site) (Homo sapiens, UniProt P61964)
Test: BLI full binding curves, WDR5 Myc-site peptides

CSCC[C@@H]1NC(=O)[C@H](Cc2ccccc2)NC(=O)[C@H](CCC(N)=O)NC(=O)[C@@H](NC(=O)[C@H](Cc2ccccc2)NC(=O)[C@H](CC(=O)O)NC(=O)[C@H](CCC(=O)O)NC(=O)[C@H](CC(=O)O)NC(=O)[C@H](CC(=O)O)NC(=O)CCNC(=O)[C@H](CCCCNC(=O)CCCC[C@@H]2SC[C@@H]3NC(=O)N[C@@H]32)NC(C)=O)CSCc2cccc(c2)CSC[C@@H](C(=O)N[C@@H](CC(=O)O)C(=O)N[C@@H](CC(C)C)C(=O)N[C@@H](CC(=O)O)C(=O)N[C@@H](CCC(=O)O)C(=O)N[C@@H](Cc2ccccc2)C(=O)N[C@@H](CC(C)C)C(=O)N[C@@H](CCCCN)C(N)=O)NC1=O [WDR5 Myc B1 stapled]
Kd: 39 nM
